Results from patent US5902583A, “Genetic induction of receptors for targeted radiotherapy” (priority 1997, dated 1999).

Chains of the proteins cited; added tags and fusions are not shown. Lines headed by an entry give the natural chain unless they say otherwise; changes in a name come on top.
UniProt P21729: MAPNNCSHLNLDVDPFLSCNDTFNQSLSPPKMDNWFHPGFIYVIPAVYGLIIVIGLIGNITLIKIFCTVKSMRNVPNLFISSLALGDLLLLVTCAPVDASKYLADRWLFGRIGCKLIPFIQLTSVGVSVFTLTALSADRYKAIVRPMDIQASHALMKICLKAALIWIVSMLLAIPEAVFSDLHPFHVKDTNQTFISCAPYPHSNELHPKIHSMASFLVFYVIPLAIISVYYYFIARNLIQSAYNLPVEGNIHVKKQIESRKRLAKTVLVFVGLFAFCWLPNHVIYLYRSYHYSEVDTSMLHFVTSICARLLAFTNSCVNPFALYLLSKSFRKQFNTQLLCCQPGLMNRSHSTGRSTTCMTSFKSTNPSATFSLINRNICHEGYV

Target: T1, murine gastrin releasing peptide receptor (mGRPr) (Mus musculus, UniProt P21729)
T1 construct: expressed in transfected cells; host or cells: human carcinoma lines A427, D54MG, U251MG, LS174T, WiDr, OVCAR-3, OV-4, SKOV3.ip1 infected with AdCMVGRPr; positive control: mouse fibroblast line BNR-11 stably expressing mGRPr
Experiment: Live-cell binding of radiolabeled bombesin after AdCMVGRPr infection of human carcinoma cell lines
Settings: all cell lines examined, AdCMVGRPr infected
Description: Infections with recombinant adenoviruses were performed as previously described. Cells were harvested for radiolabeled binding assay 48 hours following adenoviral mediated infection by removal at 37° C. with 4 mM EDTA, 0.05% KCl. Detached cells were washed once with 0.1% BSA/PBS pH 7.2, enumerated and resuspended at 1×10^7 per ml. Each set of cells was aliquoted into 100 μl samples in duplicate polystyrene test tubes following the addition of 100,000 cpm (100 μl) of [^125 I]-Tyr-bombesin (DuPont NEN Research Products, Boston, Mass.). […] The solutions were mixed at room temperature for 1 hour, rinsed with PBE and centrifuged at 1700×g for 10 min. The supernatant was removed and the cells were counted in a gamma counter to determine the amount of bound radioactivity. Radioactivity bound was then plotted as the percent cpm bound to the cells versus the total amount of cpm added. The human ovarian carcinoma cell line SKOV3.ip1 expresses the cell surface receptor for erbB-2. Therefore, a non-internalizing monoclonal antibody (e21) against a cell surface epitope of erbB-2 was employed (provided by C. Richter King, Oncologix, Inc., Gaithersburg, Md.). The e21 antibody was ^125 I-labeled using the lodogen method and utilized in an in vitro live-cell binding assay with the SKOV3.ip1 cells. […] Cells were washed and bound radioactivity determined as described above. […]

^125 I-labeled bombesin: ^125 I-labeled bombesin
radioactivity bound to the cells: 60-80%
